Measurements taken from US7141655B2, “Reagents and procedures for high-specificity labeling” (dated 2006).

Experiment: Spectroscopic properties of fluorochrome conjugates in methanol
Details: for λmax,em (nm): emission maximum; for λmax, exc (nm): excitation maximum

Substance	λmax,em (nm)	λmax, exc (nm)
Cy5 bis-sulfonato bis-propionamido-phenylarsine-ethanedithiol	673 nm	650 nm
Cy7 bis-propionamido-phenylarsine-ethanedithiol	774 nm	743 nm
Cy5 bis-propionamido-phenylarsineoxide	665 nm	647 nm
Cy3 bis-sulfonato bis-propionamido-phenylarsine-propanedithiol-sulfonic acid	570 nm	557 nm
Cy5 bis-propionamido-phenylarsine-ethanedithiol	666 nm	648 nm
Cy3 bis-sulfonato bis-propionamido-phenylarsine-ethanedithiol	572 nm	558 nm
Cy5 bis-sulfonato bis-propionamido-phenylarsine-propanedithiol-sulfonic acid	667 nm	652 nm
Cy3 bis-propionamido-phenylarsineoxide	566 nm	552 nm
Cy3 bis-propionamido-phenylarsine-ethanedithiol	567 nm	552 nm
